# ChEMBL document CHEMBL5380833, “Discovery of Potent and Highly Selective Interleukin-2-Inducible T-Cell Kinase Degraders with In Vivo Activity” (J Med Chem, 2023)
# Amino acid sequences for entries named in this document (tags omitted). A change or cut given only in a name is not applied to a line headed by its entry.
# UniProt Q08881: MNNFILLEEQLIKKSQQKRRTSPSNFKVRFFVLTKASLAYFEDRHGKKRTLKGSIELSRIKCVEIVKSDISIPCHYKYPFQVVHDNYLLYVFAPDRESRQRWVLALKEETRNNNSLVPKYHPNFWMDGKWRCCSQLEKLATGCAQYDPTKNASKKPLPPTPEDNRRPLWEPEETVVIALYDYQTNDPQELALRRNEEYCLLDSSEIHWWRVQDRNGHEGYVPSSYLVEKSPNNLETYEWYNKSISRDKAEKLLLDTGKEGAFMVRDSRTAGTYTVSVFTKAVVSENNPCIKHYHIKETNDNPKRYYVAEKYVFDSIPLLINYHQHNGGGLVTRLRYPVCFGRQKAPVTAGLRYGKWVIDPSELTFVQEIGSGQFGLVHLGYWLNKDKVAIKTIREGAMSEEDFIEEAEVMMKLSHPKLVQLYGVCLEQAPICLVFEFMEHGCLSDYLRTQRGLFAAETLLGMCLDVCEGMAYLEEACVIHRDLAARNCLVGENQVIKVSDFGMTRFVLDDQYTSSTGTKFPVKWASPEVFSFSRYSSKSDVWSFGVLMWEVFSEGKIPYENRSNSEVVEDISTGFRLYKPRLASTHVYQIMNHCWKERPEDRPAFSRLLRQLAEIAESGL
# UniProt Q96SW2: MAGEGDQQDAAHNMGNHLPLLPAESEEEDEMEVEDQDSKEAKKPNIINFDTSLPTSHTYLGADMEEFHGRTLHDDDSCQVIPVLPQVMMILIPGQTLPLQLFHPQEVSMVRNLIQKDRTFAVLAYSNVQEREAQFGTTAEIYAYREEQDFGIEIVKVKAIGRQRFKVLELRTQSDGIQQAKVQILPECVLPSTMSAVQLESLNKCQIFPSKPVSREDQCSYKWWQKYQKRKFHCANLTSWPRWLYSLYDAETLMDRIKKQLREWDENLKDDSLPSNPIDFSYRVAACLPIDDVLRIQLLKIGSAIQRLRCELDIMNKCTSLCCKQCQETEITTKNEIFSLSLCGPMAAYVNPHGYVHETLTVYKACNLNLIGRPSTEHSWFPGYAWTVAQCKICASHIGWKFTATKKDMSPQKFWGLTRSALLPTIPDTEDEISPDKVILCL
# Target: Protein cereblon/Tyrosine-protein kinase ITK/TSK (Homo sapiens, UniProt Q08881+Q96SW2)
# Assay: PROTAC activity at CRBN/ITK in human Jurkat cells assessed as induction of ITK degradation at 0.01 to 10 uM measured after 16 hrs by Western blot analysis
# Format: cell-based
# Settings: dose 0.01-10 µM
smiles,measurement,value
CN(CCCCCC(=O)Nc1ccc2c(c1)C(=O)N(C1CCC(=O)N(C)C1=O)C2=O)CC[C@@H](c1ccccc1)n1cc(NC(=O)c2n[nH]c3c2CCC(C)(C)C3)cn1 (stereo partly specified),Activity,inactive

# Active and inactive are the calls of the source. The calls are words filed in the database; no cut-off is given here.
